Measured values published in patent US5504116A (Research Foundation of State University of New York, priority 1994, dated 1996).

Amino acid sequences for entries named in this document (tags omitted).
UniProt P22002, whole entry: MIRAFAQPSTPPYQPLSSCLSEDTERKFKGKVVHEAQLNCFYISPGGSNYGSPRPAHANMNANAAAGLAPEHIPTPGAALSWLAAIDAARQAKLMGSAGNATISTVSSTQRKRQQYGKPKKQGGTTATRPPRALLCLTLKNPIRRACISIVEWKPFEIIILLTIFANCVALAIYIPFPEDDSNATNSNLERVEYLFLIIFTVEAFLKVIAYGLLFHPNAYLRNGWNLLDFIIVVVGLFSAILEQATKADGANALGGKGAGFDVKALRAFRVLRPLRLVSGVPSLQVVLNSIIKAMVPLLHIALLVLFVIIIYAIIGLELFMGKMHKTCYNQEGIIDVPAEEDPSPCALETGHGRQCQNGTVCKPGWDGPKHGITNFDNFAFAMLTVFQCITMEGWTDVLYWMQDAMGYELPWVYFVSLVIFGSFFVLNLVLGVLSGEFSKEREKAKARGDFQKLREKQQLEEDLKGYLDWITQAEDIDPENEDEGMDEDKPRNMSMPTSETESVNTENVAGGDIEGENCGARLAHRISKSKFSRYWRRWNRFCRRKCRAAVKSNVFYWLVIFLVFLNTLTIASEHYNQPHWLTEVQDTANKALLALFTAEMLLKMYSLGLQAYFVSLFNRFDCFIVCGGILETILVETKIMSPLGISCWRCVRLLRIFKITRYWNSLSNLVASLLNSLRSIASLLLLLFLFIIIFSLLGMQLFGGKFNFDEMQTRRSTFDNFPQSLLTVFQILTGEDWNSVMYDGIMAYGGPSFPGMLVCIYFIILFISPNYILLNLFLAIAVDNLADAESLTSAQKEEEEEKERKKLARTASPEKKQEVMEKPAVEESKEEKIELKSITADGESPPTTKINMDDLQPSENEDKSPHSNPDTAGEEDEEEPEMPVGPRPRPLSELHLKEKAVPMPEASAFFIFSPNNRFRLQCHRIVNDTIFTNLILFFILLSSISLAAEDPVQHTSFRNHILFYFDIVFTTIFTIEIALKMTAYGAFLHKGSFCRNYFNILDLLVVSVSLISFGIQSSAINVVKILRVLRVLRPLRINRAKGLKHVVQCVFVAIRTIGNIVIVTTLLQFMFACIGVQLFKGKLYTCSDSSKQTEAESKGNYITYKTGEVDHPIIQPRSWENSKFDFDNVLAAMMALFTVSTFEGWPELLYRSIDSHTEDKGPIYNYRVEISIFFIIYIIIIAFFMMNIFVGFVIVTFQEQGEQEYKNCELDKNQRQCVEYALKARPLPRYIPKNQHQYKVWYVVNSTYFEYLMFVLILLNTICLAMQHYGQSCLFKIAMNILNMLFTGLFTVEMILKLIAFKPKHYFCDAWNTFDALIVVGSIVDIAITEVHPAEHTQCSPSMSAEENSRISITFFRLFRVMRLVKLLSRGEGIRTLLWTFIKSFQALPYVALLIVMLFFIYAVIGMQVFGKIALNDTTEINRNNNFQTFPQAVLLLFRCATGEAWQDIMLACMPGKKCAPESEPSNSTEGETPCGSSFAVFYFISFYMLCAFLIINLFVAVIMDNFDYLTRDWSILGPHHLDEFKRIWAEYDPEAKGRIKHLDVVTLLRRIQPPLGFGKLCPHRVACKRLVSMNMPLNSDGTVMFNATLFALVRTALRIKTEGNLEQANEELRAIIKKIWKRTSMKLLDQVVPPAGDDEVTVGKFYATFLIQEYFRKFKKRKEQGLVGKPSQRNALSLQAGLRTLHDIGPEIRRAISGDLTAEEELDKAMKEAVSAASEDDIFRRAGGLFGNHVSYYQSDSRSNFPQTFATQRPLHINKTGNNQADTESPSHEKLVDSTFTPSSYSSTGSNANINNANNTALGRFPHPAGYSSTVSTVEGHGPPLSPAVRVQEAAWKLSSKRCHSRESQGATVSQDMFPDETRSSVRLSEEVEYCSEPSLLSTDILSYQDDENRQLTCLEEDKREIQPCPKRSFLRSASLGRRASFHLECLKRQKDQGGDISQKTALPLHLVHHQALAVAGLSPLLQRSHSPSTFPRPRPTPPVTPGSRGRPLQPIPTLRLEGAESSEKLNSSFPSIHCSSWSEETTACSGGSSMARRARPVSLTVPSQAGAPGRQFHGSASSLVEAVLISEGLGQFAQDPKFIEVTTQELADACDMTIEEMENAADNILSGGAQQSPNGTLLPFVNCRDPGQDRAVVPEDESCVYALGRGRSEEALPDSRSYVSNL

Target: T1, voltage-gated calcium channel (ICa) of uterine myocytes (Rattus norvegicus, UniProt P22002)
T1 construct: Individual myocytes were freshly isolated from 14 to 21-day pregnant uteri; endogenous in cells; host or cells: freshly dissociated longitudinal myometrial myocytes of 14 to 21-day pregnant Sprague-Dawley rats
Experiment: whole-cell patch clamp, inward calcium current (ICa) of freshly dissociated pregnant rat uterine myocytes
Assay type: cell-based
Settings: recovery 6 min after 1 mM lidocaine (FIG. 2C)
From the text: Holding potential, -80 mV; depolarized by 35 ms steps from -40 mV in 10 mV increments to 30 mV. […] Traces shown represent inward currents in response to applied voltage commands, outward K^+ currents having been blocked by the use of Cs^+ -filled electrode. […] (E) Current-voltage (I--V) relations of INa in panels (A--D). Symbols correspond to those under current traces. (F) I--V relations of ICa.
Hollow symbols for I'Ca /ICa in same myocytes used for I'Na /INa values. […] P=I'Na /INa.
All experiments in this study were performed under institutional guidelines for the care and use of laboratory animals (approval #92-055). Rats (Sprague-Dawley) were mated individually in the inventors' laboratory, and the duration of gestation was timed from the morning of the first discovery of cervical plugs. […] Individual myocytes were freshly isolated from 14 to 21-day pregnant uteri. Details of the methods of isolating the myocytes in a near-physiological condition, and associated patch-clamping can be found in other publications^7,15. Briefly, strips of isolated longitudinal myometrium were incubated in collagenase, and then subjected to mild mechanical disruption, until individual myocytes in desired amounts were obtained. For the work described herein, such single freshly dissociated myocytes were studied in the whole-cell configuration of patch-clamping^9. […]

CCN(CC)CC(=O)Nc1c(C)cccc1C [lidocaine]
tail ICa after recovery from lidocaine relative to control: 86%
